Measurements: PubChem BioAssay AID624503 (The Scripps Research Institute Molecular Screening Center, 2012)
Calls of active or inactive are those of the source. Where no limit is named, active and inactive come without a cut-off here.

Amino acid sequences for entries named in this document (tags omitted).
UniProt P35363, whole entry, looked up: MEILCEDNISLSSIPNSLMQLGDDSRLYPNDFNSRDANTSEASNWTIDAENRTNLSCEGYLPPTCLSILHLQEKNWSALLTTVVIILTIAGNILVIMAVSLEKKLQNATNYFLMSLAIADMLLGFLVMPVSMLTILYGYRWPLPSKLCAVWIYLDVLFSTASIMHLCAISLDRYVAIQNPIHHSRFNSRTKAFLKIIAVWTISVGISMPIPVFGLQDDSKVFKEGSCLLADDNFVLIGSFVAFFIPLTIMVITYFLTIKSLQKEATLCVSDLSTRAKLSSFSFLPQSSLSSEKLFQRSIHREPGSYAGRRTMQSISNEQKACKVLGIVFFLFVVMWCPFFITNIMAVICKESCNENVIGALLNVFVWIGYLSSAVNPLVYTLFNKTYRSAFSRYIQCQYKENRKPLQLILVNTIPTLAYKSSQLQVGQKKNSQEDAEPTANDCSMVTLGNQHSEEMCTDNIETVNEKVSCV

Biological target: 5-hydroxytryptamine receptor 2A (Mus musculus) (UniProt P35363)
Experiment: PubChem AID 624503
Settings: HTR2A-expressing cells, agonist luminescence read-out

Row | SMILES | EC50
1 | CN1C[C@H](C(=O)N[C@]2(C)O[C@@]3(O)[C@@H]4CCCN4C(=O)[C@H](Cc4ccccc4)N3C2=O)CC2c3cccc4[nH]cc(c34)C[C@H]21 (stereo not given in full) | inactive
2 | CCCN1C[C@H](CSC)C[C@@H]2c3cccc4[nH]cc(c34)C[C@H]21 | < 3.8 nM
3 | CC(CCc1ccc(O)cc1)NCCc1ccc(O)c(O)c1 (stereo not given) | 147 nM
4 | C#C[C@]1(O)CC[C@H]2[C@@H]3CCC4=CC(=O)CC[C@]4(C)[C@H]3CC[C@@]21C | 5850 nM
5 | CC(C)[C@@]1(NC(=O)[C@@H]2C[C@@H]3c4cccc5[nH]cc(c45)C[C@H]3N(C)C2)O[C@@]2(O)[C@@H]3CCCN3C(=O)[C@H](Cc3ccccc3)N2C1=O | inactive
